## AlphaSeq binding of Ab-14 light chain variants to a spike HR2 peptide

Antigen: PDVDLGDISGINAS, a 14-residue peptide of the SARS-CoV-2 spike HR2 region.

The variants keep the heavy chain, the linker and the frameworks of Ab-14 (scFv order VH, a 15-residue (Gly4Ser)3 linker, VL).
VH: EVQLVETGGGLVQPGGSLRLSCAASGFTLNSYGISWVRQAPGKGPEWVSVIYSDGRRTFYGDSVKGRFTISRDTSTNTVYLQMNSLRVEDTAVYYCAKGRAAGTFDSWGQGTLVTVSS
VL: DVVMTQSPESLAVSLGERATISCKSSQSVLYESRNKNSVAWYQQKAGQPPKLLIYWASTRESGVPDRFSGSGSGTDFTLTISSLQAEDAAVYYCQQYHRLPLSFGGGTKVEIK

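Designed CDR sequences, proposed from the first random library and measured here. Group labels follow the data file (Ctrl: baseline library sampled from a position-specific scoring matrix, with some repeated check sequences; GP: Gaussian process model; GPLM: also part of the Gaussian process libraries; HC: hill climbing; Gen: genetic algorithm; Gibbs: Gibbs sampling; a sequence that several methods proposed may carry one label only). In AlphaSeq, yeast of one mating type display the scFv and yeast of the other type display the target. After mating in shaken culture at 30 °C for 16 h, diploids were selected and their barcode pairs sequenced. Scores were corrected for input abundance and mapped to Kd with protein pairs of known affinity run in the same pool. The assay was run in six technical replicates.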

Substitutions are numbered in sequence along the VL above, starting at 1 (not Kabat).
Variants here have at most six changes.
Values are log10 of the apparent Kd in nM; lower means stronger binding.
A mean of the replicates is given; it leaves out those without a signal.
"no signal" means that the variant was in the library but no mating with the target was seen in any replicate; the authors take this as a sign of poor binding, and no number exists.

With S25Q+W56G [GPLM_HC] the result was -0.05 (6 of 6 replicates). Variant S25Y+S26Y+Q27P+V29Y+L30Y+W56Q [GP_HC] gave 0.24 (6 of 6 replicates). With Q27I+V29E+L30G+R34M+W56E [GP_HC] the result was 0.36 (6 of 6 replicates). With S25H+S28E+V29K+W56D [GP_HC] the result was -0.07 (6 of 6 replicates). Variant S25I+S28E+L30W+W56E+T59L+S62Q [GP_Gibbs] gave 0.57 (6 of 6 replicates). Variant Q27I+V29Y+W56E+S62Q [GP_HC] gave 0.42 (6 of 6 replicates). Variant Q27T+V29I+R34V+W56H [GP_HC] showed 0.50 (6 of 6 replicates). For S25L+S26Q+L30P+W56H [GP_Gen], the assay gave -0.24 (6 of 6 replicates).

For S25L+V29D+W56Q [GP_Gen], the assay gave -0.33 (6 of 6 replicates). Variant S25L+R34E+W56Q [Ctrl] showed -0.37 (6 of 6 replicates). Variant S25V+S26Q+W56N+A57G [GP_Gen] showed 0.15 (6 of 6 replicates). Variant S25L+V29N+W56E+E61L [GP_Gen] showed 0.00 (6 of 6 replicates). With S25V+R34G+N35T+W56D+T59S [GP_HC] the result was -0.06 (6 of 6 replicates). Variant S25L+S26P+V29Q+N35M+W56N [GP_Gen] showed -0.20 (6 of 6 replicates). With S33H [Ctrl] the result was 2.31 (3 of 6 replicates). Variant S25L+V29Q+N35M+W56N+S62V [GP_Gen] showed -0.04 (6 of 6 replicates).

With L30E+N35A [Ctrl] the result was 2.14 (1 of 6 replicates). For V29Q+N35W+W56G+T59Q [GP_HC], the assay gave 0.79 (6 of 6 replicates). With S25V+V29N+W56N [GP_Gen] the result was -0.05 (6 of 6 replicates). Variant Q27T+R34N+W56H+S62D [GP_HC] gave 0.27 (6 of 6 replicates). With S26L+Q27W+V29Q+R34N+W56H+S62D [GP_HC] the result was 0.55 (6 of 6 replicates). Variant S25V+Q27Y+V29G+E32G+W56E+S103D [GP_Gibbs] showed 0.94 (6 of 6 replicates). For E32N+R34S+S38N [Ctrl], the assay gave 1.24 (6 of 6 replicates). With Y31F+W56D+T59Q [GP_HC] the result was 0.10 (6 of 6 replicates).

For S26N+A57R+P101T [Ctrl], the assay gave no signal (0 of 6 replicates). With S25I+W56H+S58N [Ctrl] the result was -0.31 (6 of 6 replicates). Variant S25L+S26Q+E32S+W56N [GP_Gibbs] showed -0.18 (6 of 6 replicates). For Q27P+K36F [Ctrl], the assay gave 1.83 (6 of 6 replicates). Variant K24H+S25L+W56N+E61M+S62V [GP_Gen] gave -0.14 (6 of 6 replicates). Variant S25L+N35M+W56N+S62V [GP_Gen] showed 0.09 (6 of 6 replicates). Variant S25L+Q27Y+V29N+S33D+W56N+S62Q [GP_Gibbs] gave 0.44 (6 of 6 replicates). Variant Y31T+S33P+W56D [GP_HC] gave 0.02 (6 of 6 replicates).

With S25F+S26Y+W56G [GP_Gen] the result was -0.23 (6 of 6 replicates). Variant S25L+S26Q+L30E+W56H+E61C [GP_Gen] showed -0.10 (6 of 6 replicates). Variant S25L+S26Q+V29W+K36C+W56N [GP_Gen] gave 0.38 (6 of 6 replicates). With S25L+S26G+S28G+E32Q+W56G [GP_HC] the result was -0.34 (6 of 6 replicates). With L30H+Y31E+W56N [Ctrl] the result was 0.70 (6 of 6 replicates). Variant S25L+S26P+V29N+W56E [GP_Gen] gave -0.06 (6 of 6 replicates). Variant P101G [Ctrl] gave 1.82 (1 of 6 replicates).

As a blank, each scFv also met three strains without target: over all light chain designs, 4% of these pairings were detected, typically at 2.64 and seldom below 1.59.
The authors' rule: three or more of the six replicates give a measured affinity, fewer mean a poor binder.
A sequence measured in both rounds can read differently, since the two assays cover different ranges.

The measurements come from Li et al. 2023 (doi:10.1038/s41467-023-39022-2) through the FLAb antibody collection.